Measured affinities in a library of Ab-14 light chain variants

From the AlphaSeq antibody data of Li et al. 2023 (doi:10.1038/s41467-023-39022-2), copy in the FLAb collection.

All variants were tested on one target, the spike HR2 peptide PDVDLGDISGINAS (SARS-CoV-2).

Ab-14 is the parent antibody, in scFv form: VH, then three GGGGS repeats, then VL. The heavy chain is unchanged in all variants.
VH: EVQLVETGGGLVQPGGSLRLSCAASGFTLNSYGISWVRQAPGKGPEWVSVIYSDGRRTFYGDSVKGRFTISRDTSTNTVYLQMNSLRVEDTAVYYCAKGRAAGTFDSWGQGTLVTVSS
VL: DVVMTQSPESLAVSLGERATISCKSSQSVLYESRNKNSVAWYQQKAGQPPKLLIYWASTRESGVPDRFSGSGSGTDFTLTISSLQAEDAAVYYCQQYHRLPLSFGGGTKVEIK

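The starting antibody came from a phage panning campaign against this peptide. This is the validation round: designs drawn from the data on random variants, tested in the same kind of assay. Their group label is 14L_En_Gibbs (En: ensemble of fine-tuned language models; Gibbs: Gibbs sampling). The assay is AlphaSeq: two haploid yeast populations carry antibody and antigen on their surface. After mating in shaken culture at 30 °C for 16 h, diploids were selected and their barcode pairs sequenced. A regression on co-assayed BCL2-family reference pairs converts the normalised counts of each replicate to an apparent Kd. Each pool was mated in six replicate cultures.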

Sequences are complete VL domains. The read-out is the apparent dissociation constant on a log10 scale (nM): the lower, the stronger. Where no diploid with the target was found in that replicate, the entry reads "nd": below detection, most likely a poor binder, though not proof of it. A sequence measured in both rounds can read differently, since the two assays cover different ranges. Of ten entries with the parent sequence, four were seen in most replicates (averages 0.34 to 2.37), three in one and three in none, so single entries are noisy. The authors' rule: three or more of the six replicates give a measured affinity, fewer mean a poor binder. As a blank, each scFv also met three strains without target: over all light chain designs, 4% of these pairings were detected, typically at 2.64 and seldom below 1.59. For each scFv, signals with the empty controls are counted beside the result, with their mean in brackets.

VL | log10 Kd (nM) by replicate | control signals
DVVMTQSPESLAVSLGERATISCNFGQKMALYTGQRYSIAWYQQKAGQPPKLLIYDSTVRADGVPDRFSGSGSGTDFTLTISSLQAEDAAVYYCQQYSRLPLTFGGGTKVEIK | 0.17 0.06 0.15 0.02 0.47 0.58 | 2 of 18 (2.25)
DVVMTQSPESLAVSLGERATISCSMRAVGCDMQRNHSAIAWYQQKAGQPPKLLIYDATQIEDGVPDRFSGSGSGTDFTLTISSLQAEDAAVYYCQQYVMLPLSFGGGTKVEIK | 1.54 1.58 1.94 1.33 1.64 1.67 | 0 of 18
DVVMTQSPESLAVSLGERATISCKMTEQLLNGEREPSNIAWYQQKAGQPPKLLIYAGVIGSDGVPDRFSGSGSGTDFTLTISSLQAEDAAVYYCQQYHRLPLIFGGGTKVEIK | 1.17 1.20 1.02 1.49 1.26 1.18 | 3 of 18 (2.56)
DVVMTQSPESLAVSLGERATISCVLGGQWGLGTTQNSSVAWYQQKAGQPPKLLIYNVSETMLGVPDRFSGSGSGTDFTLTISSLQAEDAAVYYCQQYWRLPLMFGGGTKVEIK | 0.85 0.69 1.08 1.02 0.67 0.71 | 1 of 18 (0.92)
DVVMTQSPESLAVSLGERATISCSFTIEGLQQQEQYKSVAWYQQKAGQPPKLLIYGEQSKVDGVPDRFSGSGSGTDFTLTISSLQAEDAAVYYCQQYGRLPLSFGGGTKVEIK | 1.09 1.17 1.11 0.68 1.53 1.39 | 0 of 18
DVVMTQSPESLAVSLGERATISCKLNEYKHETEEKTQNIAWYQQKAGQPPKLLIYDQTIRVPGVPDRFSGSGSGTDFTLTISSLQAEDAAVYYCQQYAHLPLAFGGGTKVEIK | 0.36 0.07 0.25 0.08 0.29 0.28 | 0 of 18
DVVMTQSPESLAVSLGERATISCNLSMELEDATVKDMSIAWYQQKAGQPPKLLIYDAELSTMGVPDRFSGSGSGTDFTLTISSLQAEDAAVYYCQQYMRLPLSFGGGTKVEIK | 0.87 1.27 0.93 1.54 0.91 1.47 | 3 of 18 (2.59)
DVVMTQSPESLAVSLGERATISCQFSITNNQGHSMEHNIAWYQQKAGQPPKLLIYEGTYAEEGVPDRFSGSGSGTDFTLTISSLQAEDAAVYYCQQYARLPLQFGGGTKVEIK | nd 1.47 0.93 1.75 1.08 1.54 | 0 of 18
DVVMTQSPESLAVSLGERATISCNIRGVEFESAMMGNAVAWYQQKAGQPPKLLIYDMSLVMAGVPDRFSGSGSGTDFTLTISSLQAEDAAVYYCQQYFRLPLHFGGGTKVEIK | nd 1.02 nd 0.16 nd 1.24 | 0 of 18
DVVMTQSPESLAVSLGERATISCQLEVFPLQAGSTYQAIAWYQQKAGQPPKLLIYDASHSTPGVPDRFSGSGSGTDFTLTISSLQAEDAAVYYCQQYSRLPLVFGGGTKVEIK | 0.46 0.22 0.36 0.32 0.42 0.37 | 1 of 18 (2.71)
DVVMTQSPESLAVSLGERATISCMLSYNLHDMGRNKNSVAWYQQKAGQPPKLLIYEMNKSTTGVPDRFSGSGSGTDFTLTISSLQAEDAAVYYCQDYHRLPLAFGGGTKVEIK | 0.72 0.44 0.95 0.41 0.51 0.74 | 0 of 18
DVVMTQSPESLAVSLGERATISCKLNEDVGNHTHDQKNVAWYQQKAGQPPKLLIYGESRVDRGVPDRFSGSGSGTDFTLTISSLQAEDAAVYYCQQYAHLPLSFGGGTKVEIK | 1.14 1.49 0.83 1.81 1.12 1.91 | 0 of 18
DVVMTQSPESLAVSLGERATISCYMSMYLDMQDDIQYGVAWYQQKAGQPPKLLIYDANVRNAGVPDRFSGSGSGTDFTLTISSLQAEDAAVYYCQQYQRLPLSFGGGTKVEIK | 0.11 0.27 -0.35 -0.16 -0.27 -0.02 | 0 of 18
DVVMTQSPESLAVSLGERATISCMFDWGELPNGQKTSSIAWYQQKAGQPPKLLIYQGHMRAGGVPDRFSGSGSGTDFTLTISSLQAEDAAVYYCQQYYQLPLCFGGGTKVEIK | 0.67 0.46 0.21 0.53 0.45 0.35 | 1 of 18 (2.81)
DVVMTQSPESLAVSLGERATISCSMQVYTENFMERGQNIAWYQQKAGQPPKLLIYDVSAKTVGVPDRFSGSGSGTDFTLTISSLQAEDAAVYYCQQYHRLPLAFGGGTKVEIK | 0.12 0.11 0.02 0.30 0.03 0.25 | 0 of 18
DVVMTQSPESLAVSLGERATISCQLGKQAQGLGVSNNNVAWYQQKAGQPPKLLIYNEDVKDAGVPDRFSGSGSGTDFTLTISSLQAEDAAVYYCQQYMRLPLIFGGGTKVEIK | 0.59 0.49 0.28 0.30 0.62 0.36 | 1 of 18 (1.89)
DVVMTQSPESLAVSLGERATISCDFALIQDSMGEAKNSIAWYQQKAGQPPKLLIYDRNTKAHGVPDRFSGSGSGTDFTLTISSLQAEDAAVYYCQQYSRLPLVFGGGTKVEIK | 0.42 0.48 0.30 0.20 0.27 0.49 | 1 of 18 (2.99)
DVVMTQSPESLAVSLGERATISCHINEVDHGVKNKYNNIAWYQQKAGQPPKLLIYDISELAIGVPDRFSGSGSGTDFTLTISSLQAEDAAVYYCQQYFQLPISFGGGTKVEIK | 0.80 1.19 0.58 0.56 0.76 0.95 | 0 of 18

Excerpt, the final 2 entries:

VL | log10 Kd (nM) by replicate | control signals
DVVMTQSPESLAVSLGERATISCDFALIQDSMGEAKNSIAWYQQKAGQPPKLLIYDRNTKAHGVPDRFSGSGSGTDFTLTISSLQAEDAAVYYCQQYSRLPLVFGGGTKVEIK | 0.42 0.48 0.30 0.20 0.27 0.49 | 1 of 18 (2.99)
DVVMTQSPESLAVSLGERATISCHINEVDHGVKNKYNNIAWYQQKAGQPPKLLIYDISELAIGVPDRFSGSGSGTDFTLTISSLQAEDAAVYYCQQYFQLPISFGGGTKVEIK | 0.80 1.19 0.58 0.56 0.76 0.95 | 0 of 18